Paper PMC3467217, “A Potent Class of GPR40 Full Agonists Engages the EnteroInsular Axis to Promote Glucose Control in Rodents” (PLoS ONE, 2012)
pEC50: −log10 of the molar value.

Chains of the proteins cited; added tags and fusions are not shown.
UniProt O14842, whole entry: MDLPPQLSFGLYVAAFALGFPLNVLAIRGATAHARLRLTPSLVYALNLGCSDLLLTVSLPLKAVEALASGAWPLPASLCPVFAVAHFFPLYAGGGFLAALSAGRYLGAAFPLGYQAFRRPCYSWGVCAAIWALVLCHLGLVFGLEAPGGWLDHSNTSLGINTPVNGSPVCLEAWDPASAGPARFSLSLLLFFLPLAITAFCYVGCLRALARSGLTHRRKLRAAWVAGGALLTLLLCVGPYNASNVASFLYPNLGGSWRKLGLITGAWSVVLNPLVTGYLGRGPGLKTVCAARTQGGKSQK

Target: GPR40 (Homo sapiens, UniProt O14842)
Experiment: Aequorin Ca2+ flux assay in CHO cell line stably expressing GPR40
Assay type: cell-based
Details: CHO-GPR40 stable cell line; for Emax (efficacy): compared to natural free fatty acid ligands

CC#C[C@H](CC(=O)O)c1ccc(OCc2ccc(-c3cccc(OC)c3)cc2)cc1 (racemic)
pEC50: 5.42 | Emax (efficacy): 98%

CC#C[C@@H](CC(=O)O)c1ccc(OCc2ccc(-c3cccc(OC)c3)cc2)cc1 (racemic)
Emax (efficacy): 30%
